{"source": "ChEMBL document CHEMBL1121862", "about": "“Synthesis of 3-hydroxycyclophosphamide and studies related to its possible role in the metabolism of cyclophosphamide” (1981)", "key": {"Mus musculus [1]": {"system": "Mus musculus", "assay": "Maximum life span of mice after 150 mg/kg ip administration; Increases"}, "Mus musculus [2]": {"system": "Mus musculus", "assay": "Effect tested against L1210 leukemia cells in mice after 250-30 mg/kg ip administration"}}}
{"smiles": "O=P1(N(CCCl)CCCl)OCCCN1O", "note": "(configuration not stated)", "values": [{"measurement": "ILS", "setting": "Mus musculus [1]", "value": 128, "unit": "%"}, {"measurement": "Activity", "setting": "Mus musculus [2]", "value": "1e-05"}]}
